Details: storage at 25° C./60% relative atmospheric humidity, versus Aspisol (commercial product until mid-2005)

## D,L-Lysine Acetylsalicylate with 10% Glycine [Example 1]
After 30 months
  Salicylic acid released relative to Aspisol: one third less
FIG. 3
  Stability (formation of salicylic acid) compared to Aspisol: considerably improved stability

— patent US8063243B2, “Stable active compound complex of salts of o-acetylsalicylic acid with basic amino acids and glycine” (Bayer Pharma Aktiengesellschaft, priority 2005, dated 2011)
